Results published in US10544104B2 (dated 2020).

Test system: P. falciparum NF54 gametocytes
Format: cell-based, Plasmodium falciparum

SMILES: CCOc1ccc2cc(-c3nn(CC4CCNCC4)c4ncnc(N)c34)ccc2c1 [Compound 29, 3-(6-ethoxynaphthalen-2-yl)-1-(piperidin-4-ylmethyl)-1H-pyrazolo[3,4-d]pyrimidin-4-amine]
- sporozoite load diminished relative to untreated controls (100 nM): 86%
- suppression of exflagellation events, repeat experiment (0.3 μM): > 90%
